The results in this text go back to patent US7220764B2, “Sphingosine kinase inhibitors” (The Pennsylvania State University Research Foundation, priority 2002, dated 2007).

The target in the assay is T1, PI3K.
T1 construct: other: human isoform; mean ± SD of triplicate experimen; activity toward PI3K (in words)
As to the kind of experiment: Kinase selectivity panel: PI3K (lipid kinase). In kind it is biochemical. The conditions noted are these: human isoform; mean ± SD of triplicate experiments; read-out: PI3K, concentration required to inhibit enzyme activity by 50%. As for the experimental part: Thus potencies of each inhibitor were determined for human isoforms of ERK2, PI3K and PKCα. SK inhibition data is provided for comparison. Data represent the concentrations required to inhibit enzyme activity by 50%, and are the mean ±SD of triplicate experiments. Results designated as “None” indicate that no inhibition was detected at concentrations up to 60 μM.

Consider `O=C1/C(=C/c2ccc(O)c(O)c2)Oc2ccccc21` [Compound 5, 2-(3,4-Dihydroxy-benzylidene)-benzofuran-3-one], for which the IC50 was 6 ± 2 µM.
